The chains behind the UniProt entries cited, without tags or fusion partners.
UniProt P98170, whole entry: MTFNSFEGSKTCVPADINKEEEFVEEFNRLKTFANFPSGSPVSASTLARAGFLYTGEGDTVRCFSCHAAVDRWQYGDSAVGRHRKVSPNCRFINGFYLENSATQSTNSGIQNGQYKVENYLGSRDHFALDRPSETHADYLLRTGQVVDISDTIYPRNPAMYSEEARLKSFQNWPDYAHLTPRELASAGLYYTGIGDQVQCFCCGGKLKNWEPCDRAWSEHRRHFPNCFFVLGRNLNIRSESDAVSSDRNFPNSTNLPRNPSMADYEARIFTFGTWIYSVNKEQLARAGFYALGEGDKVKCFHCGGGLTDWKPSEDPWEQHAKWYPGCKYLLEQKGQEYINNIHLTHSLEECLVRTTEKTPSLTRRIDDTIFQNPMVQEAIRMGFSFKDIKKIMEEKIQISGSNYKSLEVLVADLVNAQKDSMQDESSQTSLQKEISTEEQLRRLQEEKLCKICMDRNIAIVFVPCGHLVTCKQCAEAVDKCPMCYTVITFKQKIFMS
UniProt Q9Y2R2, whole entry: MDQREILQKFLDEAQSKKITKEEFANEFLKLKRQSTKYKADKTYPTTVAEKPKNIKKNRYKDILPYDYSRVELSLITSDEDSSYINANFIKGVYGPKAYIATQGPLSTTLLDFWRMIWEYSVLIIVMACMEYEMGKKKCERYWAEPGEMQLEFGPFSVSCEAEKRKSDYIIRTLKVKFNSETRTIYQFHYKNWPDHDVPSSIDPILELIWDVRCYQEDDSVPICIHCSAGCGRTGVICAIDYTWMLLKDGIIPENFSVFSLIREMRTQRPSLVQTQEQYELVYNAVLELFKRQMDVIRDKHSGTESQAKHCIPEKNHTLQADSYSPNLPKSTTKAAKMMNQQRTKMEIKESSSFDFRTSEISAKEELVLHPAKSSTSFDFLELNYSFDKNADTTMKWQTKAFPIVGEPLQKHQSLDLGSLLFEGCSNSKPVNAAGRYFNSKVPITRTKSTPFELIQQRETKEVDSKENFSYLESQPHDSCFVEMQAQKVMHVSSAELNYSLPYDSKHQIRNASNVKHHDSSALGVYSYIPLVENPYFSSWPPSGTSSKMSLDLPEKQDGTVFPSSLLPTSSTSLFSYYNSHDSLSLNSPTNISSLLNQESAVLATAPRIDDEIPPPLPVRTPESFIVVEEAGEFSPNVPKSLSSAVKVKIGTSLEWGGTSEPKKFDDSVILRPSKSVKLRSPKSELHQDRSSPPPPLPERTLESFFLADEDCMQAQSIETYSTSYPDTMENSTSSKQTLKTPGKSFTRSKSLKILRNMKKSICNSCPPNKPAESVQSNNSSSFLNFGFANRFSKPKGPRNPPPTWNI

In ChEMBL document CHEMBL1201862, “PubChem BioAssay data set” (2004):

Legend:
[1] = molecular target: T1, E3 ubiquitin-protein ligase XIAP (Homo sapiens, UniProt P98170); assay: SAR analysis of Antagonists of IAP-family anti-apoptotic proteins. [Related pubchem assays (depositor defined):AID1018, AID1449, AID1513, AID1514, AID1638]
[2] = molecular target: T1, E3 ubiquitin-protein ligase XIAP; assay: SAR analysis of Antagonists of XIAP-Bir3 domain of IAP-family anti-apoptotic proteins. [Related pubchem assays (depositor defined):AID1018, AID1449, AID1513, AID1514, AID1638]
Phospholipase D1 = molecular target: T2, Phospholipase D1 (Homo sapiens, UniProt Q13393); assay: PLD1 purified enzyme concentration response. [Related pubchem assays (depositor defined):AID588854]; type: functional
T2 sequence (Q13393 whole entry): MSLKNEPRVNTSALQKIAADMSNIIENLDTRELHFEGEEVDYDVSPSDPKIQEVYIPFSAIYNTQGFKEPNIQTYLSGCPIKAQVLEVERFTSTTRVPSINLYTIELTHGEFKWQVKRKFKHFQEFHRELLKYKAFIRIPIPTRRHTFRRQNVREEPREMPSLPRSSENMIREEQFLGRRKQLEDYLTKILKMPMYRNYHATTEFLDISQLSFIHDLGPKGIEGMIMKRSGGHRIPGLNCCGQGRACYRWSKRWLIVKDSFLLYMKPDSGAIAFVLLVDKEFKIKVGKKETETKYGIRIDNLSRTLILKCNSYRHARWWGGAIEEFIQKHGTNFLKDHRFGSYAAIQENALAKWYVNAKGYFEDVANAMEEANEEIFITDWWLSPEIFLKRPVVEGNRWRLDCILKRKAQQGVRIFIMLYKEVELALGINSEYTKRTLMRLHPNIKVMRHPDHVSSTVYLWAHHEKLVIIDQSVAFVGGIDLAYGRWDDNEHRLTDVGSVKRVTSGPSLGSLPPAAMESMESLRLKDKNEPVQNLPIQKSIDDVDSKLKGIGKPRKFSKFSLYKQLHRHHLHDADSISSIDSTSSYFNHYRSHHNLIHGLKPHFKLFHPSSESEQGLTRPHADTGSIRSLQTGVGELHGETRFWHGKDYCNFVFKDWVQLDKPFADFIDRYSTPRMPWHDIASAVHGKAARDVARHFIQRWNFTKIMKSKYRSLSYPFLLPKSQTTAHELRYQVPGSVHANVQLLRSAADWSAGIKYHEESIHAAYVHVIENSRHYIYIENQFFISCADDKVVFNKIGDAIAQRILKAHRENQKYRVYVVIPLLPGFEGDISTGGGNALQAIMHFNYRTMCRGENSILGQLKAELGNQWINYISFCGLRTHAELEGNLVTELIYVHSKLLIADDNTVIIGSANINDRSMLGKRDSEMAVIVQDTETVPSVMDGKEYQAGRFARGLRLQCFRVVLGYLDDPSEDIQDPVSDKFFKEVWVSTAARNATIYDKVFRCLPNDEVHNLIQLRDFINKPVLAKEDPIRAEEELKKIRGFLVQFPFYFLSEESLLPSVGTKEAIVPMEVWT

[3] = molecular target: T3, Tyrosine-protein phosphatase non-receptor type 22 (Homo sapiens, UniProt Q9Y2R2); type: functional
[4] = molecular target: T3, Tyrosine-protein phosphatase non-receptor type 22; type: functional; remark: listed apart in the source
[5] = ZM109 Env clade C HIV-1 fusion inhibitors, dose response, HeLa effector, CEM target cells, luciferase, cherry-pick (AID 652058); type: functional, cell-based
[6] = inhibitors of HIV Env-driven cell fusion, dose response, cherry-pick (AID 652057); type: functional, cell-based
[7] = inhibitors of clade B AD8 Env fusion, dose response, cell-based, cherry-pick (AID 652062); type: functional;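 further: luciferase signal from cell-cell fusion driven by HIV-1 clade B AD8 Env; potency is for inhibitors of fusion seen as a drop in luminescence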
[8] = off-target signal loss in HeLa-CEM21 co-culture – HeLa F-luc CTL cells, cherry-picked, counter-screen for HIV-1 Env fusion inhibitor project, dose response (AID 652040); type: functional, cell-based;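 further: potency for signal decrease marking cytotoxic or nonspecific inhibition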

In the case of `CN[C@@H](C)C(=O)N[C@H](C(=O)N1CCC[C@H]1C(=O)N[C@@H]1CCCc2ccccc21)C(C)C`, the IC50 [1] is reported as active: 3.1 µM and the IC50 [2] is reported as active: 0.28 µM.

In the case of `C[C@@H](CN1CCC(n2c(=O)[nH]c3ccc(F)cc32)CC1)NC(=O)[C@@H]1C[C@H]1c1ccccc1`, the IC50 (Phospholipase D1) is reported as active: 0.16 µM.

With `Cn1ncnc2c(=O)n(C)c(=O)nc1-2` the IC50 [3] was active: 1.35 µM and the IC50 [4] was active: < 1.24 µM.

In the case of `CC(Cc1ccc(O)cc1)NCC(O)c1cc(O)cc(O)c1` (centres undefined) [FENOTEROL HBR], the AC50 [5] is reported as active: 7.68 µM, the AC50 [6] is reported as active: 6.9 µM and the AC50 [7] is reported as active: 4.14 µM. The AC50 [8] was active: 3.81 µM.

Calls of active or inactive are those of the source.
